The target of this assay is human NMT-1 (Homo sapiens (Human), UniProt P30419). As to the kind of experiment: NMT enzyme inhibition scintillation proximity assay, human NMT-1. It counts as biochemical. To be noted: read-out: IC50 (μM) NMT Enzyme (HuNMT-1), value in parentheses. In general terms: SPA uses beads or plates that emit light when radiolabelled molecules are held near them.

Chains of the proteins cited; added tags and fusions are not shown.
UniProt P30419, whole entry: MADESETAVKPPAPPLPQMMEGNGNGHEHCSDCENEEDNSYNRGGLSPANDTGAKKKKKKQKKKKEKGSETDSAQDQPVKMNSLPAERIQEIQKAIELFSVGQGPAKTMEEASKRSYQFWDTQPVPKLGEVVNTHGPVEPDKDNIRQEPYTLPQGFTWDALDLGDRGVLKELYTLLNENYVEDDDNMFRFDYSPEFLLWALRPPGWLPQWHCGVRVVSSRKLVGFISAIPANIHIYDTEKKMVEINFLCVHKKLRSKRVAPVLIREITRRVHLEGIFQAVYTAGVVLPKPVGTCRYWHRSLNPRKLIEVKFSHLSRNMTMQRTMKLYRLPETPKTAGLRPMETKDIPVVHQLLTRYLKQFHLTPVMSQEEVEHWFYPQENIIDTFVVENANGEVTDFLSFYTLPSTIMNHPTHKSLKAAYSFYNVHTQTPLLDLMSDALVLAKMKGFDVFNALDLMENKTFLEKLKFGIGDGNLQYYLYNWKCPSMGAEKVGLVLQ

The term IC50 denotes the midpoint of a concentration-inhibition curve. With `Cc1c(N(C(F)F)S(=O)(=O)c2c(Cl)cc(Br)cc2Cl)c(CC(C)C)nn1C`, the IC50 was 1.3 µM.
